Reference: US12678425B2, “Methods for treating against viruses” (Howard University, priority 2019, dated 2026)

System: HSV-1 ICP0 mRNA
Experiment: Real-time RT-PCR of HSV-1 ICP0 transcript in Hep-2 cells
Conditions: 12 and 24 hpi

Compound | level of ICP0 mRNA versus DMSO
COc1ccc(-c2nnc(SCC(=O)O)n2N)cc1 [SD-29-12] | essentially showed the same level of ICP0 mRNA
Nn1c(S)nnc1-c1ccc(F)cc1 [SD-29] | essentially showed the same level of ICP0 mRNA
